In brackets after ≈: the same amount, converted by molar mass.
Tests used:
Assay type in all cases: cell-based
[1] = tested on: S. epidermidis ATCC 12228; assay: MIC assay, S. epidermidis ATCC 12228; settings: two-fold dilution in 96-well plates, MHB, 2-7 × 10^5 CFU/mL, 18–24 h, 37 °C
Protocol: (§1) MIC measurements were performed in 96-well plates. The peptides were dissolved in 0.2% bovine serum albumin and 0.01% acetic acid, and an appropriate broth was subjected to a series of two-fold dilutions. The final concentration of microbial suspensions was from 2 × 10^5 to 7 × 10^5 colony forming units (CFU)∙mL^−1. Key parameters were volume (50 μL bacterial suspension + 50 μL peptide solution), incubating time (18–24 h), and temperature (37 °C). Each test was performed in three replicates on at least two independent occasions. The Mueller Hilton broth (MHB) (AoBoX, Shanghai, China) without or with microbial cells was regarded as the negative control or positive control, respectively. MICs were recorded at the lowest peptide concentration without visible turbidity and spectrophotometrically by measuring the optical density (OD) at 492 nm (Tecan, Salzburg, Austria).

P. aeruginosa ATCC 27853 = assay: MIC assay, P. aeruginosa ATCC 27853; settings: two-fold dilution in 96-well plates, MHB, 2-7 × 10^5 CFU/mL, 18–24 h, 37 °C
Protocol: as §1

E. coli UB1005 = assay: MIC assay, E. coli UB1005; settings: two-fold dilution in 96-well plates, MHB, 2-7 × 10^5 CFU/mL, 18–24 h, 37 °C
Protocol: as §1

[2] = tested on: human red blood cells (hRBCs); assay: Hemolytic activity assay; settings: lowest peptide concentration that induces 5% hemolysis; hRBCs in PBS pH 7.4, 1 h, 37 °C, OD570
Protocol: Hemolytic activity measurements were performed to evaluate the effect of peptides on hemoglobin release levels by erythrocyte lysis. The experimental protocol was reviewed and approved by the ethics committee of the Northeast Agricultural University Hospital, and the experimental method was carried out in accordance with the approved guidelines and regulations. A total of 1 mL of fresh hRBCs was collected and diluted 10-fold with PBS (pH 7.4). A quantity of 50 μL of the hRBCs solution was incubated with 50 μL of serially diluted peptides dissolved in PBS for 1 h at 37 °C. hRBC suspension treated with 0.1% Triton X-100 was employed as a positive control and an untreated hRBC suspension was used as a negative control. A total of 50 μL of the supernatant was collected from the mixture after centrifugation (1000g, 5 min, 4 °C) and transferred to a new 96-well microplate. The percent hemolysis was calculated using the following equation: Hemolysis (%) = [(OD570 of the treated sample — OD570 of the negative control)/(OD570 of the positive control — OD570 of the negative control)] × 100%.

[3] = tested on: S. typhimurium ATCC 14028; assay: MIC assay, S. typhimurium ATCC 14028; settings: two-fold dilution in 96-well plates, MHB, 2-7 × 10^5 CFU/mL, 18–24 h, 37 °C
Protocol: as §1

CC[C@H](C)[C@H](NC(=O)CN)C(=O)NCC(=O)N[C@@H](C)C(=O)N[C@H](C(=O)N[C@@H](CC(C)C)C(=O)N[C@@H](CCCCN)C(=O)N[C@H](C(=O)N[C@@H](CC(C)C)C(=O)N[C@H](C(=O)N[C@H](C(=O)NCC(=O)N[C@@H](CC(C)C)C(=O)N1CCC[C@H]1C(=O)N[C@@H](C)C(=O)N[C@@H](CC(C)C)C(=O)N[C@H](C(=O)N[C@@H](CO)C(=O)N[C@@H](Cc1c[nH]c2ccccc12)C(=O)N[C@H](C(=O)N[C@@H](CCCCN)C(=O)N[C@@H](CCCNC(=N)N)C(=O)N[C@@H](CCCCN)C(=O)N[C@@H](CCCNC(=N)N)C(=O)N[C@@H](CCC(N)=O)C(=O)N[C@@H](CCC(N)=O)C(N)=O)[C@@H](C)CC)[C@@H](C)CC)[C@@H](C)O)[C@@H](C)O)C(C)C)C(C)C [Melittin]
MIC [1]: 0.5 µM (≈ 1.42 µg/mL) | MIC (P. aeruginosa ATCC 27853): 2 µM (≈ 5.69 µg/mL) | MIC (E. coli UB1005): 2 µM (≈ 5.69 µg/mL) | MHC5 (minimum hemolysis concentration 5%) [2]: 0.25 µM | MIC [3]: 4 µM (≈ 11.4 µg/mL)
